Laboratory results reported in patent US10010535B2, “Desferrithiocin analogs and uses thereof” (University of Florida Research Foundation, Incorporated, priority 2013, dated 2018).
Where two headings read alike, the source gives them in different places.

Tests used:
iron excretion [1] = assay: Iron-clearing efficiency in iron-overloaded primates (fecal and urine samples); type: in vivo, Cebus apella monkeys; settings: po 75 μmol/kg, monosodium salt
Procedure: At least 20 half-lives, 60 days (Wood et al., “The Metabolism of Iron-Dextran Given As a Total-Dose Infusion to Iron Deficient Jamaican Subjects.” Br. J. Hamaetol. 1968, 14, 119-129), elapsed before any of the animals were used in experiments evaluating iron-chelating agents.
Briefly, the collections began 4 days prior to the administration of the test compound and continued for an additional 5 days after the compound was given. Iron concentrations were determined by flame absorption spectroscopy as presented in other publications (Bergeron et al., “A Comparative Evaluation of Iron Clearance Models.” Ann. N.Y. Acad. Sci. 1990, 612, 378-393; Bergeron et al., “Synthesis and Biological Evaluation of Naphthyldesferrithiocin Iron Chelators.” J. Med. Chem. 1996, 39, 1575-1581).
In the text below, the term “iron-clearing efficiency” (ICE) is used as a measure of the amount of iron excretion induced by a chelator. The ICE, expressed as a percent, is calculated as (compound-induced iron excretion/theoretical iron excretion)×100. To illustrate, the theoretical iron excretion after administration of one millimole of desferrioxamine B mesylate (DFO) (FIG. 3), a hexadentate chelator that forms a 1:1 complex with Fe(III), is one milli-g-atom of iron. […]

iron excretion [2] = settings: po 150 μmol/kg, cited from earlier work
iron excretion [3] = settings: po 300 μmol/kg, monosodium salt, cited from earlier work

| SMILES | Primate Iron-Clearing Efficiency (%) (iron excretion [1]) | relative percentages of the iron excreted in the feces and urine (iron excretion [1]; primates, feces/urine) | Primate Iron-Clearing Efficiency (%) (iron excretion [2]) | relative percentages of the iron excreted in the feces and urine (iron excretion [2]; primates, feces/urine) | Rodent Iron-Clearing Efficiency (%) (iron excretion [3]) | relative percentages of the iron excreted in the bile and urine (iron excretion [3]; rodents, bile/urine) |
| --- | --- | --- | --- | --- | --- | --- |
| C[C@]1(C(=O)O)CSC(c2ncc(O)cc2O)=N1 [I-1, (S)-4,5-Dihydro-2-(3,5-dihydroxy-2-pyridinyl)-4-methyl-4-thiazolecarboxylic Acid] | 10.0±2.9% | 58/42 | – | – | – | – |
| C[C@]1(C(=O)O)CSC(c2ccc(O)cc2O)=N1 [compound 3] | – | – | 16.8±7.2% | 88/12 | 1.1±0.8% | 100/0 |
